# Ab-14 light chain CDR variants: yeast mating affinities

Binding partner: SARS-CoV-2 spike HR2 peptide, sequence PDVDLGDISGINAS.

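The starting antibody came from a phage panning campaign against this peptide. AAYL50 was designed without a model: most single CDR substitutions and a random sample of double and triple ones. The assay is AlphaSeq: two haploid yeast populations carry antibody and antigen on their surface. Binding brings cells together so that they mate, and sequencing counts the barcode pairs among the diploids. The ratio of observed to expected reads was calibrated, replicate by replicate, on BCL2-family standards whose Kd was known from biolayer interferometry. There are three technical replicates.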

The variants keep the heavy chain, the linker and the frameworks of Ab-14 (scFv order VH, three GGGGS repeats, VL).
VH: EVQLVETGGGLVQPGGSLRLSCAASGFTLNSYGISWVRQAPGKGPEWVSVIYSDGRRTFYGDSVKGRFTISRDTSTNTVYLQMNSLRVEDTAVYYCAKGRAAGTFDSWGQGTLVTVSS
VL: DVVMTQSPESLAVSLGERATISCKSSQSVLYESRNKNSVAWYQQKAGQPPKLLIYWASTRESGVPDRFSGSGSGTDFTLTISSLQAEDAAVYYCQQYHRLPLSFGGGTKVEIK

Positions count from residue 1 of the parent VL; W56L puts L in place of W. Numbers give log10(Kd / nM), so 0 is 1 nM and 3 is 1 µM. Smaller is tighter. Replicates are averaged; those with no signal do not enter the mean. An entry "not detected" has no value in the source: the pair was not observed among the diploids in any replicate. This suggests poor binding but is not conclusive.

| # | log10 Kd (nM), mean | replicates with signal | changes |
|---|---|---|---|
| 1 | 2.98 | 1 of 3 | W56L S58F S62L |
| 2 | not detected | 0 of 3 | S38W R60F Q95Y |
| 3 | 3.45 | 3 of 3 | Q27Y E61F L100I |
| 4 | 2.22 | 3 of 3 | L30Y S58H S103I |
| 5 | 2.59 | 3 of 3 | S33T W56T E61K |
| 6 | 5.69 | 1 of 3 | E32G V39G L102M |
| 7 | 0.65 | 3 of 3 | E32H K36W W56H |
| 8 | 0.85 | 3 of 3 | S25H S26A S38N |
| 9 | 3.93 | 1 of 3 | N35W V39Y T59N |
| 10 | 0.70 | 3 of 3 | S25T N37Y |
| 11 | 3.75 | 1 of 3 | K24S Q27P V39D |
| 12 | not detected | 0 of 3 | S28P S38N A40S |
| 13 | not detected | 0 of 3 | R34P K36T |
| 14 | 1.33 | 3 of 3 | R34Y S58W S62P |
| 15 | 5.24 | 1 of 3 | K24T S58M S103D |
| 16 | not detected | 0 of 3 | Q27D Q96P |
| 17 | not detected | 0 of 3 | V39W S58C R60F |
| 18 | 0.82 | 3 of 3 | S25V T59H R99W |
| 19 | 4.36 | 1 of 3 | R34N N35V S58M |
| 20 | 4.78 | 2 of 3 | S26F S33K R60D |
| 21 | 1.34 | 3 of 3 | S33V N37C R99S |
| 22 | 4.36 | 1 of 3 | N35C S62N Q96T |
| 23 | 5.01 | 2 of 3 | Q27Y S28K A57R |
| 24 | 1.05 | 3 of 3 | V29W H98T L102I |
| 25 | 1.69 | 3 of 3 | Q27D L30W Q95A |
| 26 | not detected | 0 of 3 | Y31H E32Q A40M |
| 27 | 0.77 | 3 of 3 | L30P R34Y Q96D |
| 28 | 5.48 | 2 of 3 | L30W S38W S58I |
| 29 | not detected | 0 of 3 | K24E R60A Q96N |
| 30 | 2.70 | 3 of 3 | T59M E61R |
| 31 | not detected | 0 of 3 | S62I P101T |
| 32 | not detected | 0 of 3 | Y31N S33D Q95K |
| 33 | 4.32 | 1 of 3 | Y31S V39S W56C |
| 34 | 0.60 | 3 of 3 | R34K Q96V |
| 35 | not detected | 0 of 3 | E32W V39R S103E |
| 36 | not detected | 0 of 3 | K24G S38M P101V |
| 37 | 2.70 | 3 of 3 | S28C K36V R99Y |
| 38 | 3.61 | 1 of 3 | R99E L100W |
| 39 | 4.17 | 1 of 3 | A57Q P101Q |
| 40 | 3.73 | 1 of 3 | V29M A40Q H98C |
| 41 | 4.56 | 2 of 3 | W56V S62G Q95H |
| 42 | 1.83 | 3 of 3 | N37H H98T R99L |
| 43 | 4.51 | 1 of 3 | K24P A57Q Q96W |
| 44 | 1.73 | 3 of 3 | T59D Q95W Y97I |
| 45 | 0.97 | 3 of 3 | Q95M Q96K L102E |
| 46 | not detected | 0 of 3 | R34I S38R V39D |
| 47 | 2.36 | 3 of 3 | V39Y W56R Q95A |
| 48 | 1.04 | 3 of 3 | S28V V29P L102P |
| 49 | 3.64 | 2 of 3 | S28Y R60T L102E |
| 50 | 1.56 | 3 of 3 | Q95C P101Q |
| 51 | 1.32 | 3 of 3 | W56N Y97N |
| 52 | 4.50 | 1 of 3 | E61Y Q96E R99D |
| 53 | not detected | 0 of 3 | S33F S38V Q95T |
| 54 | -0.27 | 3 of 3 | V29W W56N L102S |
| 55 | not detected | 0 of 3 | L30C E61H |
| 56 | 3.74 | 1 of 3 | S38A A40Y E61P |
| 57 | 0.71 | 3 of 3 | S25T L30W K36I |
| 58 | 0.74 | 3 of 3 | S25W L30C R34T |
| 59 | not detected | 0 of 3 | S38D L102M S103P |
| 60 | 4.37 | 2 of 3 | S33K A40S H98F |
| 61 | 2.52 | 2 of 3 | E32R K36D S62C |

The closing 9 entries, repeated:

| changes | log10 Kd (nM), mean | replicates with signal |
|---|---|---|
| S33F S38V Q95T | not detected | 0 of 3 |
| V29W W56N L102S | -0.27 | 3 of 3 |
| L30C E61H | not detected | 0 of 3 |
| S38A A40Y E61P | 3.74 | 1 of 3 |
| S25T L30W K36I | 0.71 | 3 of 3 |
| S25W L30C R34T | 0.74 | 3 of 3 |
| S38D L102M S103P | not detected | 0 of 3 |
| S33K A40S H98F | 4.37 | 2 of 3 |
| E32R K36D S62C | 2.52 | 2 of 3 |

Background: pairings of library AAYL50 with three empty control strains gave a value in 18% of cases (median 4.19, 5th percentile 2.99). Values in that range, when seen in few replicates, are hard to tell from nonspecific mating. For reference, the parent read 0.65 as the reference entry and 1.68 as a member of this library.

Reference: Engelhart et al. 2022, doi:10.1038/s41597-022-01779-4. File: FLAb, binding data.